Test [1] has as its system androgen receptor variants and RNPC1. Description: Androgen receptor variants and RNPC1 expression. Format: cell-based. The settings on record: enzalutamide.
Test [2] deals with CW22Rv1 cells in 3D co-culture with mouse prostatic fibroblasts. Description: 3D co-culture epithelial proliferation, EpCam and Ki-67 FACS. Format: cell-based, human. The settings on record: enzalutamide vs vehicle; p<0.01. The procedure:
A modified version of the 3D organotypic co-culture system was performed in a collagen matrix similar to that previously reported (Stark et al., 1999, J Invest Dermatol 112, 681-691). Collagen matrix gels were prepared by mixing five volumes of rat tail collagen I with two volumes of matrigel (NCI), one volume of 10× DMEM medium (GE Healthcare Life Sciences), and one volume of FBS (Atlanta Biologicals), Rv1 and primary mouse prostatic fibroblasts were combined in a 1:3 ratio. Nylon squares were coated with collagen and placed on metal grids in a 6-well plate. Gel plugs (150 μl) were transferred onto the nylon squares and media was added to the level of the nylon mesh. After 72 hours, the cells were dissociated from the matrix with collagenase and dispersed for FACS analysis.
FACS experiments were performed with eBiosciences antibodies: anti-human Stro-1-FITC (340105), anti-human CD90-PE (12-0909-42), anti-human CD105-APC (17-1057-41), anti-mouse CD105-APC (17-1051-82), anti-human CD117-PE-Cy7 (15-1178-41), anti-human Ki67-PECy7 (25-5699-41), and anti-human EpCAM-PE (12-9326-41). All events were acquired on a BD LSRII flow cytometer in the Cedars-Sinai Medical Center FACS core installed with BD FACSDiva software. Files were analyzed using FlowJo software v10.2. […]

The structures appear in SMILES notation.

Consider `CNC(=O)c1ccc(N2C(=S)N(c3ccc(C#N)c(C(F)(F)F)c3)C(=O)C2(C)C)cc1F` [enzalutamide, reference compound], for which, in test [1], the RNPC1 expression entry is “up regulates RNPC1 expression”. The CW22Rv1 proliferation index entry in test [2] is “doubled”.
